B1: RAC-alpha serine/threonine-protein kinase (Homo sapiens), P31749 (parent)
chain: MSDVAIVKEGWLHKRGEYIKTWRPRYFLLKNDGTFIGYKERPQDVDQREAPLNNFSVAQCQLMKTERPRPNTFIIRCLQWTTVIERTFHVETPEEREEWTTAIQTVADGLKKQEEEEMDFRSGSPSDNSGAEEMEVSLAKPKHRVTMNEFEYLKLLGKGTFGKVILVKEKATGRYYAMKILKKEVIVAKDEVAHTLTENRVLQNSRHPFLTALKYSFQTHDRLCFVMEYANGGELFFHLSRERVFSEDRARFYGAEIVSALDYLHSEKNVVYRDLKLENLMLDKDGHIKITDFGLCKEGIKDGATMKTFCGTPEYLAPEVLEDNDYGRAVDWWGLGVVMYEMMCGRLPFYNQDHEKLFELILMEEIRFPRTLGPEAKSLLSGLLKKDPKQRLGGGSEDAKEIMQHRFFAGIVWQHVYEKKLSPPFKPQVTSETDTRYFDEEFTAQMITITPPDQDDSMECVDSERRPHFPQFSYSASGTA

Variants of: B1
Conditions: with dpoe1_human POLE

| Variant | effect of a mutation on the interaction |
| --- | --- |
| MSDVAIVKEGWLHKRGKYIKTWRPRYFLLKNDGTFIGYKERPQDVDQREAPLNNFSVAQCQLMKTERPRPNTFIIRCLQWTTVIERTFHVETPEEREEWTTAIQTVADGLKKQEEEEMDFRSGSPSDNSGAEEMEVSLAKPKHRVTMNEFEYLKLLGKGTFGKVILVKEKATGRYYAMKILKKEVIVAKDEVAHTLTENRVLQNSRHPFLTALKYSFQTHDRLCFVMEYANGGELFFHLSRERVFSEDRARFYGAEIVSALDYLHSEKNVVYRDLKLENLMLDKDGHIKITDFGLCKEGIKDGATMKTFCGTPEYLAPEVLEDNDYGRAVDWWGLGVVMYEMMCGRLPFYNQDHEKLFELILMEEIRFPRTLGPEAKSLLSGLLKKDPKQRLGGGSEDAKEIMQHRFFAGIVWQHVYEKKLSPPFKPQVTSETDTRYFDEEFTAQMITITPPDQDDSMECVDSERRPHFPQFSYSASGTA [E17K] | causing an interaction |

Variants of: B1
Conditions: with ppard_human PPARD

| Variant | effect of a mutation on the interaction |
| --- | --- |
| MSDVAIVKEGWLHKRGKYIKTWRPRYFLLKNDGTFIGYKERPQDVDQREAPLNNFSVAQCQLMKTERPRPNTFIIRCLQWTTVIERTFHVETPEEREEWTTAIQTVADGLKKQEEEEMDFRSGSPSDNSGAEEMEVSLAKPKHRVTMNEFEYLKLLGKGTFGKVILVKEKATGRYYAMKILKKEVIVAKDEVAHTLTENRVLQNSRHPFLTALKYSFQTHDRLCFVMEYANGGELFFHLSRERVFSEDRARFYGAEIVSALDYLHSEKNVVYRDLKLENLMLDKDGHIKITDFGLCKEGIKDGATMKTFCGTPEYLAPEVLEDNDYGRAVDWWGLGVVMYEMMCGRLPFYNQDHEKLFELILMEEIRFPRTLGPEAKSLLSGLLKKDPKQRLGGGSEDAKEIMQHRFFAGIVWQHVYEKKLSPPFKPQVTSETDTRYFDEEFTAQMITITPPDQDDSMECVDSERRPHFPQFSYSASGTA [E17K] | causing an interaction |

Variants of: B1
Conditions: with prdm1_human PRDM1, O75626

| Variant | effect of a mutation on the interaction |
| --- | --- |
| MSDVAIVKEGWLHKRGKYIKTWRPRYFLLKNDGTFIGYKERPQDVDQREAPLNNFSVAQCQLMKTERPRPNTFIIRCLQWTTVIERTFHVETPEEREEWTTAIQTVADGLKKQEEEEMDFRSGSPSDNSGAEEMEVSLAKPKHRVTMNEFEYLKLLGKGTFGKVILVKEKATGRYYAMKILKKEVIVAKDEVAHTLTENRVLQNSRHPFLTALKYSFQTHDRLCFVMEYANGGELFFHLSRERVFSEDRARFYGAEIVSALDYLHSEKNVVYRDLKLENLMLDKDGHIKITDFGLCKEGIKDGATMKTFCGTPEYLAPEVLEDNDYGRAVDWWGLGVVMYEMMCGRLPFYNQDHEKLFELILMEEIRFPRTLGPEAKSLLSGLLKKDPKQRLGGGSEDAKEIMQHRFFAGIVWQHVYEKKLSPPFKPQVTSETDTRYFDEEFTAQMITITPPDQDDSMECVDSERRPHFPQFSYSASGTA [E17K] | causing an interaction |

Variants of: B1
Conditions: with prex2_human PREX2, Q70Z35

| Variant | effect of a mutation on the interaction |
| --- | --- |
| MSDVAIVKEGWLHKRGKYIKTWRPRYFLLKNDGTFIGYKERPQDVDQREAPLNNFSVAQCQLMKTERPRPNTFIIRCLQWTTVIERTFHVETPEEREEWTTAIQTVADGLKKQEEEEMDFRSGSPSDNSGAEEMEVSLAKPKHRVTMNEFEYLKLLGKGTFGKVILVKEKATGRYYAMKILKKEVIVAKDEVAHTLTENRVLQNSRHPFLTALKYSFQTHDRLCFVMEYANGGELFFHLSRERVFSEDRARFYGAEIVSALDYLHSEKNVVYRDLKLENLMLDKDGHIKITDFGLCKEGIKDGATMKTFCGTPEYLAPEVLEDNDYGRAVDWWGLGVVMYEMMCGRLPFYNQDHEKLFELILMEEIRFPRTLGPEAKSLLSGLLKKDPKQRLGGGSEDAKEIMQHRFFAGIVWQHVYEKKLSPPFKPQVTSETDTRYFDEEFTAQMITITPPDQDDSMECVDSERRPHFPQFSYSASGTA [E17K] | causing an interaction |

Variants of: B1
Conditions: with aapk2_human PRKAA2, P54646

| Variant | effect of a mutation on the interaction |
| --- | --- |
| MSDVAIVKEGWLHKRGKYIKTWRPRYFLLKNDGTFIGYKERPQDVDQREAPLNNFSVAQCQLMKTERPRPNTFIIRCLQWTTVIERTFHVETPEEREEWTTAIQTVADGLKKQEEEEMDFRSGSPSDNSGAEEMEVSLAKPKHRVTMNEFEYLKLLGKGTFGKVILVKEKATGRYYAMKILKKEVIVAKDEVAHTLTENRVLQNSRHPFLTALKYSFQTHDRLCFVMEYANGGELFFHLSRERVFSEDRARFYGAEIVSALDYLHSEKNVVYRDLKLENLMLDKDGHIKITDFGLCKEGIKDGATMKTFCGTPEYLAPEVLEDNDYGRAVDWWGLGVVMYEMMCGRLPFYNQDHEKLFELILMEEIRFPRTLGPEAKSLLSGLLKKDPKQRLGGGSEDAKEIMQHRFFAGIVWQHVYEKKLSPPFKPQVTSETDTRYFDEEFTAQMITITPPDQDDSMECVDSERRPHFPQFSYSASGTA [E17K] | causing an interaction |

Variants of: B1
Conditions: with rac1_human RAC1

| Variant | effect of a mutation on the interaction |
| --- | --- |
| MSDVAIVKEGWLHKRGKYIKTWRPRYFLLKNDGTFIGYKERPQDVDQREAPLNNFSVAQCQLMKTERPRPNTFIIRCLQWTTVIERTFHVETPEEREEWTTAIQTVADGLKKQEEEEMDFRSGSPSDNSGAEEMEVSLAKPKHRVTMNEFEYLKLLGKGTFGKVILVKEKATGRYYAMKILKKEVIVAKDEVAHTLTENRVLQNSRHPFLTALKYSFQTHDRLCFVMEYANGGELFFHLSRERVFSEDRARFYGAEIVSALDYLHSEKNVVYRDLKLENLMLDKDGHIKITDFGLCKEGIKDGATMKTFCGTPEYLAPEVLEDNDYGRAVDWWGLGVVMYEMMCGRLPFYNQDHEKLFELILMEEIRFPRTLGPEAKSLLSGLLKKDPKQRLGGGSEDAKEIMQHRFFAGIVWQHVYEKKLSPPFKPQVTSETDTRYFDEEFTAQMITITPPDQDDSMECVDSERRPHFPQFSYSASGTA [E17K] | causing an interaction |

Variants of: B1
Conditions: with rara_human RARA

| Variant | effect of a mutation on the interaction |
| --- | --- |
| MSDVAIVKEGWLHKRGKYIKTWRPRYFLLKNDGTFIGYKERPQDVDQREAPLNNFSVAQCQLMKTERPRPNTFIIRCLQWTTVIERTFHVETPEEREEWTTAIQTVADGLKKQEEEEMDFRSGSPSDNSGAEEMEVSLAKPKHRVTMNEFEYLKLLGKGTFGKVILVKEKATGRYYAMKILKKEVIVAKDEVAHTLTENRVLQNSRHPFLTALKYSFQTHDRLCFVMEYANGGELFFHLSRERVFSEDRARFYGAEIVSALDYLHSEKNVVYRDLKLENLMLDKDGHIKITDFGLCKEGIKDGATMKTFCGTPEYLAPEVLEDNDYGRAVDWWGLGVVMYEMMCGRLPFYNQDHEKLFELILMEEIRFPRTLGPEAKSLLSGLLKKDPKQRLGGGSEDAKEIMQHRFFAGIVWQHVYEKKLSPPFKPQVTSETDTRYFDEEFTAQMITITPPDQDDSMECVDSERRPHFPQFSYSASGTA [E17K] | causing an interaction |

Variants of: B1
Conditions: with rhoa_human RHOA

| Variant | effect of a mutation on the interaction |
| --- | --- |
| MSDVAIVKEGWLHKRGKYIKTWRPRYFLLKNDGTFIGYKERPQDVDQREAPLNNFSVAQCQLMKTERPRPNTFIIRCLQWTTVIERTFHVETPEEREEWTTAIQTVADGLKKQEEEEMDFRSGSPSDNSGAEEMEVSLAKPKHRVTMNEFEYLKLLGKGTFGKVILVKEKATGRYYAMKILKKEVIVAKDEVAHTLTENRVLQNSRHPFLTALKYSFQTHDRLCFVMEYANGGELFFHLSRERVFSEDRARFYGAEIVSALDYLHSEKNVVYRDLKLENLMLDKDGHIKITDFGLCKEGIKDGATMKTFCGTPEYLAPEVLEDNDYGRAVDWWGLGVVMYEMMCGRLPFYNQDHEKLFELILMEEIRFPRTLGPEAKSLLSGLLKKDPKQRLGGGSEDAKEIMQHRFFAGIVWQHVYEKKLSPPFKPQVTSETDTRYFDEEFTAQMITITPPDQDDSMECVDSERRPHFPQFSYSASGTA [E17K] | causing an interaction |

Source: IntAct's records for PubMed 35512704
